From PubChem BioAssay AID1259415 (National Center for Advancing Translational Sciences (NCATS), 2018)
The entries are a selection whose mix differs from that of the whole data set. Some of these compounds have results that are not shown, active ones among them. Records with an inconclusive call do not appear. Active and inactive are the calls of the source. Cut-off read from the data, not from the text of the source: active = activity change below about -60%; inconclusive = no clear call, values can overlap the other calls; inactive = above about -39%.

experiment: qHTS Assay for inhibitors of the human cytomegalovirus (HCMV); details: HFF cells, HCMV-luciferase reporter, 72 h; at 57.5 µM; active compounds read low
Source text: NCGC Assay Overview: Infection with human cytomegalovirus (HCMV) continues to pose significant threats for pregnant women and immunocompromised hosts. HCMV causes serious morbidity and mortality in transplant recipients, and congenital HCMV is the leading infectious cause of mental retardation and deafness in children. In the 1990s, the annual costs associated with the disease burden of congenital CMV were estimated at around $2 billion. A HCMV vaccine is not available yet and HCMV therapies result in intolerable side effects and emergence of drug resistant viruses. […] Towards this goal we have developed and characterized a luciferase HCMV reporter that was initially used in 96 well plates and then optimized to 1536-well plates for utilization in screening of the MLSMR collection, the NGCG diversity collection and the NCGC Pharmaceutical Collection of approved and investigational drugs.
NCGC Assay Protocol Summary:
This is a cell-based assay for HCMV inhibition in HFFs cells. The screening used 2 compound doses and the HCMV-luciferase at MOI of 1 PFU/cell. Cells were treated and infected with HCMV. At 72 h post infection cell lysates were collected and luciferase activity was determined using the Glomax-Multi + Detection System (Promega, Madison, WI). Data were normalized to the controls for basal activity (buffer only) and known HCMV inhibitors Salinmoycin.
1536-well assay protocol for the assay:
(1) Add 3 ul CMV/HFF cell culture. 1000 cells/well in DMEM nirmal media.
(2) Incubate 16 hr at 37C.
(3) Add 23 nl control compound, 10uM of Salinomycin.
(4) Add 23 nl compounds in DMSO solution.
(5) Add 3 ul CMV suspension. Final 1 puf/ul, Virus stock 2000pfu/ul
(6) Incubate 72 hrs at 37C.
(7) Add 4 ul OneGlo Luc Reagent.
(8) Incubate 5 min at room temperature.
% is set by controls: 0 for no effect and ±100 for the full control effect.

Row | SMILES | activity change, negative = inhibition
1 | CCCCOc1ccccc1C(=O)NCC1(N(C)C)CCCCC1 | inactive: -26.2%
2 | CN(C)C1(CNC(=O)c2ccccc2[N+](=O)[O-])CCCCC1 | inactive: 6.29%
3 | Cc1ccccc1C(=O)NCC1(N2CCCCC2)CCCCC1 | inactive: -20.6%
4 | CN(C)C1CCCC1OC(=O)C(O)(c1ccccc1)c1ccccc1 (centres undefined) | inactive: 10.9%
5 | CN(C)c1ccc(C(=O)NCC2(N(C)C)CCCCC2)cc1 | inactive: 14.4%
6 | Cc1cc(C(=O)NCC2(N3CCCCC3)CCCCC2)ccc1[N+](=O)[O-] | inactive: 14.5%
7 | CCN1CCCC(OC(=O)C2(O)c3ccccc3C=Cc3ccccc32)C1 (centres undefined) | inactive: -9.91%
8 | COc1ccc(C(=O)NCC2(N(C)C)CCCCC2)cc1 | inactive: -33%
9 | CCOc1cccc(C(=O)NCC2(N(C)C)CCCCC2)c1 | inactive: 4.75%
10 | C=CCN1CCN(CCOC(=O)C(O)(c2ccccc2)c2ccccc2)CC1 | inactive: -32.9%
11 | O=C(NCC1(N2CCCCC2)CCCCC1)c1cc(F)c(F)cc1Cl | inactive: -17.9%
12 | CN1[C@@H]2CC[C@H]1CC(OC(=O)C(O)(c1ccccc1)c1ccccc1)C2 (some centres undefined) | inactive: 24.4%
13 | O=C(NCC1(N2CCCCC2)CCCCC1)c1cc([N+](=O)[O-])ccc1Cl | inactive: -32%
14 | CN(C)C1(CNC(=O)c2ccccc2F)CCCCC1 | inactive: 14.8%
15 | Cc1ccc(C(=O)NCC2(N3CCCCC3)CCCCC2)cc1 | inactive: -4.65%
16 | CC(C)N1C(=O)CC2(CCN(CCOC(=O)C(O)(c3ccccc3)c3ccccc3)CC2)C1=O | inactive: -26.6%
17 | CN(C)C1(CNC(=O)c2cccc(Cl)c2)CCCCC1 | inactive: -7.37%

Row | SMILES | activity change, negative = inhibition
18 | CCN(CC)CC(C)C(C)OC(=O)C(O)(c1ccccc1)c1ccccc1 (centres undefined) | inactive: -20.5%
19 | COc1cc(SC)ccc1C(=O)NCC1(N(C)C)CCCCC1 | inactive: 40.8%
20 | CC(C)COc1ccc(C(=O)NCC2(N(C)C)CCCCC2)cc1 | inactive: -24.1%
21 | O=C(OC1CN2CCC1CC2)C(CO)(c1ccccc1)c1ccccc1 (centres undefined) | inactive: -9.3%
22 | COc1cccc(C(=O)NCC2(N3CCOCC3)CCCCC2)c1 | inactive: 27.1%
23 | CN(C)c1cccc(C(=O)NCC2(N(C)C)CCCCC2)c1 | inactive: -6.81%
24 | O=C(OCCN1CCCC1)C(O)(c1ccccc1)c1ccccc1 | inactive: -19.5%
25 | COc1cc(C(=O)NCC2(N(C)C)CCCCC2)cc(OC)c1OC | inactive: 20.1%
26 | Cc1cccc(C(=O)NCC2(N(C)C)CCCCC2)c1 | inactive: 4.88%
27 | COc1ccc(Br)c(C(=O)NCC2(N3CCCCC3)CCCCC2)c1 | inactive: -32.8%
28 | C=C(C)C#CC(O)(C(=O)OC1CCN(C)CC1)c1ccccc1 (centres undefined) | inactive: 5.81%
29 | COc1cc(C(=O)NCC2(N(C)C)CCCCC2)c([N+](=O)[O-])cc1OC | inactive: -34.6%
30 | CN(C)C1(CNC(=O)c2ccc(Br)cc2)CCCCC1 | inactive: -34.3%
31 | O=C(NCC1(N2CCCCC2)CCCCC1)c1cccc(Cl)c1 | inactive: -7.18%
32 | COc1ccc(C(=O)NCC2(N(C)C)CCCCC2)cc1Cl | inactive: -8.62%
33 | COc1cccc(C(=O)NCC2(N3CCCCC3)CCCCC2)c1 | inactive: 12.1%
34 | COc1ccc(Cl)cc1C(=O)NCC1(N(C)C)CCCCC1 | inactive: 14.3%
